Binding of CDR-mutated scFvs to a peptide of the spike HR2 region

Antigen: PDVDLGDISGINAS, a 14-residue peptide of the SARS-CoV-2 spike HR2 region.

Each scFv is VH, the linker GGGGSGGGGSGGGGS, VL, as in the parent Ab-14, and differs from it in the CDRs of the heavy chain only.
VH: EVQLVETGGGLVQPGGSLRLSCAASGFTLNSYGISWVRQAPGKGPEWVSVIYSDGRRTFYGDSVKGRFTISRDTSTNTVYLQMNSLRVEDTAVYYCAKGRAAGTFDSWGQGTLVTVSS
VL: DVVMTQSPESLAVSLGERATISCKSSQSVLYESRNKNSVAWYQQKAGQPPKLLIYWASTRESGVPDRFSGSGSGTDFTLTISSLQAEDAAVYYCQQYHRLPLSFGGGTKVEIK

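The starting antibody came from a phage panning campaign against this peptide. AAYL49 was designed without a model: most single CDR substitutions and a random sample of double and triple ones. In AlphaSeq, yeast of one mating type display the scFv and yeast of the other type display the target. The frequency of each diploid, read from paired DNA barcodes, reflects how well the two displayed proteins bind. The ratio of observed to expected reads was calibrated, replicate by replicate, on BCL2-family standards whose Kd was known from biolayer interferometry. Each pool was mated in three replicate cultures.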

The parent's heavy chain CDRs are GFTLNSYGIS, VIYSDGRRTFYGDSVK, GRAAGTFDS; each variant's own CDRs replace them letter for letter.
Affinities are written as log10 Kd with Kd in nM; a lower number is a better binder.
A mean of the replicates is given; it leaves out those without a signal.
"nd" marks a missing value. The strain was present, yet no cells mated with the target were sequenced in any replicate, which points to weak or no binding.
Parent in this assay: reference entry 0.65, copy in this library 4.11 (one replicate of three).
Nonspecific signal, from three strains lacking the peptide, appeared in 15% of pairings of library AAYL49, centred on 4.06 (5% of these signals below 2.83); values are not corrected for it.

CDR-H1,CDR-H2,CDR-H3,"log10 Kd (nM), mean",seen in
GFTLNSYGIS,VIYSDGGRTFYGDSVK,GRAAGEFMS,nd,0/3
GFTLNSYEIS,VIYSDGWRTFYGDSVK,GRAAGTFGS,nd,0/3
GPTLNSYGIS,VIYSDGRRTFYGDSVK,GTAAGTFDS,4.34,2/3
GFTLNSYGIS,VIYSDGRTTFYNDSVK,GRDAGTFDS,4.27,1/3
GFHLNSYGIE,VIYSDGRRTFYGDSVK,GRYAGTFDS,nd,0/3
TFTLNSYGIS,VIYSDGRRTDYGDSVK,GRAHGTFDS,nd,0/3
GFTLNIYGIS,VIYSDGRRTFYGDSVK,GRASGTFDS,2.39,3/3
GFTPCSYDIS,VIYSDGRRTFYGDSVK,GRAAGTFDS,nd,0/3
GFTLNSYGIS,YIYSDGRRTFYCDSVK,GRAAGTFDS,nd,0/3
GFTLNSYGIR,VIYSDGRRTFYGDSAK,GRAVGTFDS,nd,0/3
GPTLNSYGLS,VIYSDGRRTFYGDSVK,GRALGTFDS,nd,0/3
GFTLNSEGCS,VIYSDGRRTFYGLSVK,GRAAGTFDS,nd,0/3
GFTLNSYGIS,VIYSDGRRWRYGDSVK,GRTAGTFDS,5.43,1/3
GFTLNSYGQS,VIYSDGRRTFPGDSVH,GRAAGTFDS,3.16,1/3
GFTLNSYSIV,VIYSDGRRTFYGDSVK,GRAAGTLDS,nd,0/3
GFTLNSYGIS,VIYSDGRRTFYGDSHK,GMAAGTFDS,2.39,3/3
GFTLNSYGIS,VIYSDGRCTFYEHSVK,GRAAGTFDS,2.23,1/3
GFTLNSEGIS,VWYSDGRRTFDGDSVK,GRAAGTFDS,nd,0/3
GKTLRSYGIS,VIYSDGRRTFYGMSVK,GRAAGTFDS,3.67,1/3
GFTLNSYGIS,VIYSGGRRTFKGDSVK,GRAAGTFDS,nd,0/3
GFTLNSYGIS,VIYSDGDRTQYGDSTK,GRAAGTFDS,3.69,1/3
GFTLNSYGIS,VIYSDGRRTFYGPSVK,GRPAGTFDS,nd,0/3
GFTLNSYGIS,VIYSDMRRSFYGDSVK,VRAAGTFDS,nd,0/3
GFTLNSYGIS,VIYSDGRWTFYGDSVK,WRAAGTFDS,nd,0/3
GFTLRSYGIA,VIYSDGRRTFYGDSVK,GRFAGTFDS,4.08,1/3
GFTINSYGIS,VIYSDGRRHFYGDSVK,GRANGTFDS,1.67,3/3
GFTLNSYGCS,VIYSDGRRTFYGDSVK,GRAQGTFDS,2.19,1/3
GFTLNSYGIS,VIYSDGRATFYGDSVG,GRAWGTFDS,nd,0/3
GFTLRSYGIS,VIYSDGRRTRYGDSVK,GRAAGTFDH,nd,0/3
GFTLNDYGIS,VIYSDGRRTFYGHHVK,GRAAGTFDS,2.16,3/3
GFLLNSYGIS,VIYSLGRRTFYGDSVK,GRAAGTFDS,nd,0/3
GFTLNSYGIS,VIYSDGRRCFYGDSVK,GRAAGQVDS,4.26,3/3
GFTLNSYGIS,VSYSDGRRTFWGDSVK,GRHAGTFDS,4.38,1/3
GFTLNSYGIS,VIYLDGRRTFYGDSVK,WRAAGVFDS,5.99,1/3
GFTLNSYGIS,VIYPDGRRTFYGDSTK,GRHAGTFDS,nd,0/3
GFTWNSYGIS,VIYSDGRRTFYGDSVK,GRAAGTFDG,4.25,2/3
GFTLNSYGIS,VWYSDGDRTFYGDEVK,GRAAGTFDS,2.98,2/3
TFTLNSYYIS,VIYSDIRRTFYGDSVK,GRAAGTFDS,4.25,2/3
GFTPNSYGIS,VIYSDGRRTFYGDSVK,GRCARTFDS,nd,0/3
GPTLNSYGIS,VGYSDGRRTFYGLSVK,GRAAGTFDS,nd,0/3
GFHLNSYGIS,VIYSDGRRTGYGDSVK,GRAAGTFDS,0.95,3/3
GFTLNVYGIE,VIYSHGRRTFYGDSVK,GRAAGTFDS,nd,0/3
GFTLNSYGIS,VIYSDGRRTFYGDSVK,WRDAGAFDS,nd,0/3
GFTLNSYGIS,VIYSDGSRTFYGDSFK,GRGAGTFDS,4.21,1/3
GFTLNSYGIS,IIYSVGRRTFYGVSVK,GRAAGTFDS,nd,0/3
GFTLEEYGIS,VIYSDGRRTFYGDSVK,GRAAGTFNS,0.65,3/3
GFTLNSTGIS,WIYSDGRRTFYGDSVK,GRDAGTFDS,nd,0/3
GFTLNSCGKS,VIYVDGRRTFYGDSVK,GRAAGTFDS,nd,0/3
GFTLNSYGIS,VIYSDGRRTYYGDSVK,GRAAQTFDS,5.42,1/3
GFTLNSYGIS,VIYSSGRRTFWGDSVK,GRAAITFDS,nd,0/3
GFTLNSYGIS,EIVSDGRRTFYGDTVK,GRAAGTFDS,nd,0/3
GFTLNSYGIS,DIYSDGRRLFYGDSVK,GRAIGTFDS,nd,0/3
GFTLNSYGIS,VIYSDLRRTFEGDGVK,GRAAGTFDS,nd,0/3
PFTLNSYGIS,VIYSDGRRTFYGDSVK,GRADWTFDS,4.82,2/3
GFTLNSYGIQ,VIYSDGRRQFYGDSVK,GRCAGTFDS,nd,0/3

A selection of 7 entries from above:

CDR-H1,CDR-H2,CDR-H3,"log10 Kd (nM), mean",seen in
GFTLNSYGIS,VSYSDGRRTFWGDSVK,GRHAGTFDS,4.38,1/3
GFTPCSYDIS,VIYSDGRRTFYGDSVK,GRAAGTFDS,nd,0/3
GFTLNSYGIS,VIYSDGRRTFYGDSHK,GMAAGTFDS,2.39,3/3
TFTLNSYYIS,VIYSDIRRTFYGDSVK,GRAAGTFDS,4.25,2/3
GFTINSYGIS,VIYSDGRRHFYGDSVK,GRANGTFDS,1.67,3/3
GFTLNSYGIS,EIVSDGRRTFYGDTVK,GRAAGTFDS,nd,0/3
GFTLNSYGIS,VIYSDGRCTFYEHSVK,GRAAGTFDS,2.23,1/3

Reference: Engelhart et al. 2022, doi:10.1038/s41597-022-01779-4. File: FLAb, binding data.